Measurements reported in ChEMBL document CHEMBL1136834 (Bioorg Med Chem Lett, 2009).

Chains of the proteins cited; added tags and fusions are not shown. Lines headed by an entry give the natural chain unless they say otherwise; changes in a name come on top.
UniProt P41145: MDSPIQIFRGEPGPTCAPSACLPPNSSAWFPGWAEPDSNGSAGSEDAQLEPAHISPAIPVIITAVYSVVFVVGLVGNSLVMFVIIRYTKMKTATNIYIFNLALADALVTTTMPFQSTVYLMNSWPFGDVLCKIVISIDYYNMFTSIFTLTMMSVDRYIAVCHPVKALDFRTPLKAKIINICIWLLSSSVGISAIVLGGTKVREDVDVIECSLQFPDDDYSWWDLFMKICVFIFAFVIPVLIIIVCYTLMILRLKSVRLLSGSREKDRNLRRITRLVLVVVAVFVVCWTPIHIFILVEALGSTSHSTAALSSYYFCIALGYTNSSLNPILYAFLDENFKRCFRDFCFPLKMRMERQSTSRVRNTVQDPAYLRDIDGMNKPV

The compounds below were run against Kappa-type opioid receptor (Homo sapiens, UniProt P41145) (assay: Agonist activity at human kappa opioid receptor expressed in CHO cells assessed as stimulation of [35S]GTPgammaS binding relative to basal [35S]GTPgammaS binding).
Type: functional, cell-based

SMILES | Emax [%]
C[C@H]1C2Cc3cc4nc[nH]c4cc3[C@@]1(C)CCN2CC1CC1 | 69
C[C@H]1C2Cc3cc4nn[nH]c4cc3[C@@]1(C)CCN2CC1CC1 | 110
Cc1nc2cc3c(cc2[nH]1)[C@@]1(C)CCN(CC2CC2)C(C3)[C@@H]1C | 73
C[C@H]1C2Cc3ccc4[nH]nnc4c3[C@@]1(C)CCN2CC1CC1 | 65
